pEC50: −log10 of the molar value.

The chains behind the UniProt entries cited, without tags or fusion partners.
UniProt P34972, whole entry: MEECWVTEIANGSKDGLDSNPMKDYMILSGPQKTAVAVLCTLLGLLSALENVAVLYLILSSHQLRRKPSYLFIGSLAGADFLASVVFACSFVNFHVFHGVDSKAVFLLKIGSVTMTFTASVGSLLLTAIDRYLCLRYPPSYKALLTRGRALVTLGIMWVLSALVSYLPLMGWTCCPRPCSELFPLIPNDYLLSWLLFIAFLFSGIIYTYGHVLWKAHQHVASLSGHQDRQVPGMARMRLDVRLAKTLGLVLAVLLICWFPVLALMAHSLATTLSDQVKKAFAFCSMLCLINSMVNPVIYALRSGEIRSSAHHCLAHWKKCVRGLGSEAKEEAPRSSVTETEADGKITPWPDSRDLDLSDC

The experiment addresses T1, CB2 Receptor (Homo sapiens, UniProt P34972).
T1 construct: expressed in transfected cells; host or cells: GloSensor 22-F HEK293 cells
The experiment can be described thus: cAMP measurement, forskolin-induced cAMP accumulation, CB2. The class given is cell-based. As for the experimental part: GloSensor 22-F HEK293 cells were transfected with plasmids encoding different receptors (CB1 and CB2). After 24 h, HEK293 cells were seeded at a density of 5×10^4 cells per well in 96-well plates and incubated for 8 h; then, the medium was removed, and 200 μL of serum-free DMEM medium containing 2% GloSensor cAMP substrate (Promega) was added. After 2 h incubation, the transfected cells were stimulated with different concentrations of ligands together with […]. The luminescence was recorded using a Multimode Plate Reader (En Vision, PerkinElmer).

For the molecule `C=C(C)[C@@H]1CCC(C)=C[C@H]1c1c(O)cc(CCCCC)cc1O` [CBD, (1′R,2′R)-5′-Methyl-4-pentyl-2′-(prop-1-en-2-yl)-1′,2′,3′,4′-tetra-hydro-[1,1′-biphenyl]-2,6-diol, reference compound], the pEC50 (in general, −log10 of the EC50, conventionally taken in molar units) is 8.46.

(Values after patent publication US20260242320A1, “USE OF CANNABIDIOL DERIVATIVE IN PREPARATION OF MEDICAMENT” (priority 2023, published 2026).)
